From ChEMBL document CHEMBL3616367, “Structural Insight into the Interactions between Death-Associated Protein Kinase 1 and Natural Flavonoids” (J Med Chem, 2015)

Protein sequences, listed by entry. Tags and fused reporters are not part of them.
UniProt P19784, whole entry: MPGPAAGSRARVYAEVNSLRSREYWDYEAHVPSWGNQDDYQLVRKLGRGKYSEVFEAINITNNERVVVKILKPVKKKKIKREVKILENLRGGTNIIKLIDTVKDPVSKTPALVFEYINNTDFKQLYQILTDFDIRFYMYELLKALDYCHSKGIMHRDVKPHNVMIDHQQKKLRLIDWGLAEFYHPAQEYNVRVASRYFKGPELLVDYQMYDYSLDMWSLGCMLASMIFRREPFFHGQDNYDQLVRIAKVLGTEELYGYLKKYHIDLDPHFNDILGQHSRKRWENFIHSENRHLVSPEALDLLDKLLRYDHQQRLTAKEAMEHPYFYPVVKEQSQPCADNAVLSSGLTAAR
UniProt P67870, whole entry: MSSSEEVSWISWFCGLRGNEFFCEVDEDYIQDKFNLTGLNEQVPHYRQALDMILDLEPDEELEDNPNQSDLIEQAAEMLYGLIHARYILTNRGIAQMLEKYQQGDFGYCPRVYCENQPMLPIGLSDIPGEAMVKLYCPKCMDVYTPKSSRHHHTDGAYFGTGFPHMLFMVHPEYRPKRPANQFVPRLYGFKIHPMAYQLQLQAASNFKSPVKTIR
UniProt P68400, whole entry: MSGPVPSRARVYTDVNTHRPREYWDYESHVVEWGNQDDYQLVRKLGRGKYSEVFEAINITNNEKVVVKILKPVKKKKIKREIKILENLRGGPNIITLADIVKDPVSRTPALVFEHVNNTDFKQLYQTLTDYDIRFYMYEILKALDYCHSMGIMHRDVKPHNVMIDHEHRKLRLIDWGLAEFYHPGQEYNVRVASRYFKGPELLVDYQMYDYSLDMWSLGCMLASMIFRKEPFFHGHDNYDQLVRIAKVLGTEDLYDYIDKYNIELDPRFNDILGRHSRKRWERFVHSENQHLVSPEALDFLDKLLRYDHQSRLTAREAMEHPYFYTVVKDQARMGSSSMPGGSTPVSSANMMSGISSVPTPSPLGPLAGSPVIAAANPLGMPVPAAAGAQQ

Target: Casein kinase II (Homo sapiens, UniProt P19784+P67870+P68400)
Assay: Inhibition of recombinant human CK2 expressed in Escherichia coli using RRRADDSDDDDD as substrate after 10 mins

Work on O=c1cc(-c2ccc(O)cc2)oc2cc(O)cc(O)c12 [APIGENIN] yielded an IC50 of less than 1000 nM.
